Reference: patent US7605165B2, “Phenylalanine derivatives” (Ajinomoto Co., Inc., priority 2002, dated 2009)

By UniProt entry, the sequences of proteins in these tests, tags left out. Residues count along the entry.
UniProt P13612, 34-1032 limits assumed: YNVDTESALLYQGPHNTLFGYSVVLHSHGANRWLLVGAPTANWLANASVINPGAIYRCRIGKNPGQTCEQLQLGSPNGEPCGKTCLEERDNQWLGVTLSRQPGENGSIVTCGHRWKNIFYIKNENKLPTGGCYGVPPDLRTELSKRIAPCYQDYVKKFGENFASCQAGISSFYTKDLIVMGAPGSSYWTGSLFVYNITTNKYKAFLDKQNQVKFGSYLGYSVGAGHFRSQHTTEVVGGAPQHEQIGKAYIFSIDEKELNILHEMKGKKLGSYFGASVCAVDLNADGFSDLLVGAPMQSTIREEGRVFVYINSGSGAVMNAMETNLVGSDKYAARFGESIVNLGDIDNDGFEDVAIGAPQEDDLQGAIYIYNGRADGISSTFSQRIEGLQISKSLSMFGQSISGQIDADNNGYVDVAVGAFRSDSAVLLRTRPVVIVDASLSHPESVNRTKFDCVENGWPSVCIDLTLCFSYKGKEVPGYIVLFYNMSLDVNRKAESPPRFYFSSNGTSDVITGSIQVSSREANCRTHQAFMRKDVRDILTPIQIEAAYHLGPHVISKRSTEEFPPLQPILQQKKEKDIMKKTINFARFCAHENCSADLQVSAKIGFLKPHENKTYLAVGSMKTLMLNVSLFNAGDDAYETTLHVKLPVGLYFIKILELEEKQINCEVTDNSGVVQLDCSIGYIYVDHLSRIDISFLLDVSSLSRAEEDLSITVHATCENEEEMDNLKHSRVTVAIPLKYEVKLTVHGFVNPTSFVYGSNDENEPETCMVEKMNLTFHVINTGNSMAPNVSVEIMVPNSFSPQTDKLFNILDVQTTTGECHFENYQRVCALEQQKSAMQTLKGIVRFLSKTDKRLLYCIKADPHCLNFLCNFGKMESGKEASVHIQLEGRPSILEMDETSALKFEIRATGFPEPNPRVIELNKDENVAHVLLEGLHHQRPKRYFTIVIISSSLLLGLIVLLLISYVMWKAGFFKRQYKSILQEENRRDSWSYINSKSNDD
UniProt P26010, 20-798 limits assumed: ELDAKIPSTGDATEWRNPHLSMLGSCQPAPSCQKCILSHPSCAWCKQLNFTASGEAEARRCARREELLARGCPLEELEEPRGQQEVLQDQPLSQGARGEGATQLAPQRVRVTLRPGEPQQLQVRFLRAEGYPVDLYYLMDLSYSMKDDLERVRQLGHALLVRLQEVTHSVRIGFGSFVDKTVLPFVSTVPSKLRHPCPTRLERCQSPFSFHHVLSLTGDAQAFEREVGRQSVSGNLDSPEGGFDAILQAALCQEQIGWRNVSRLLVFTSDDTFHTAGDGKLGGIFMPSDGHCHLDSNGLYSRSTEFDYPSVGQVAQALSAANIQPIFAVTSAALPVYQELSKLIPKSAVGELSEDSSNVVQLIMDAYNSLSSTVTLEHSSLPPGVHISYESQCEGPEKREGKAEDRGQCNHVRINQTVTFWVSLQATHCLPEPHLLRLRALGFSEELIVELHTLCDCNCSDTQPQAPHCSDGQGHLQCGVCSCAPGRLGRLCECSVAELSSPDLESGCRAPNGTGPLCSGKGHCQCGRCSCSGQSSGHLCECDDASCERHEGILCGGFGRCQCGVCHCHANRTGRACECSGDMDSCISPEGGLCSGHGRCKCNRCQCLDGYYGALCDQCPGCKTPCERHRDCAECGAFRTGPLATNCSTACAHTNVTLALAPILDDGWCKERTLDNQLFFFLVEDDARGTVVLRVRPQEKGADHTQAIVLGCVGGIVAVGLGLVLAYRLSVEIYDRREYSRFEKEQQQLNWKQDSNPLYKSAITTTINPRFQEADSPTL
UniProt P05556, 21-798 limits assumed: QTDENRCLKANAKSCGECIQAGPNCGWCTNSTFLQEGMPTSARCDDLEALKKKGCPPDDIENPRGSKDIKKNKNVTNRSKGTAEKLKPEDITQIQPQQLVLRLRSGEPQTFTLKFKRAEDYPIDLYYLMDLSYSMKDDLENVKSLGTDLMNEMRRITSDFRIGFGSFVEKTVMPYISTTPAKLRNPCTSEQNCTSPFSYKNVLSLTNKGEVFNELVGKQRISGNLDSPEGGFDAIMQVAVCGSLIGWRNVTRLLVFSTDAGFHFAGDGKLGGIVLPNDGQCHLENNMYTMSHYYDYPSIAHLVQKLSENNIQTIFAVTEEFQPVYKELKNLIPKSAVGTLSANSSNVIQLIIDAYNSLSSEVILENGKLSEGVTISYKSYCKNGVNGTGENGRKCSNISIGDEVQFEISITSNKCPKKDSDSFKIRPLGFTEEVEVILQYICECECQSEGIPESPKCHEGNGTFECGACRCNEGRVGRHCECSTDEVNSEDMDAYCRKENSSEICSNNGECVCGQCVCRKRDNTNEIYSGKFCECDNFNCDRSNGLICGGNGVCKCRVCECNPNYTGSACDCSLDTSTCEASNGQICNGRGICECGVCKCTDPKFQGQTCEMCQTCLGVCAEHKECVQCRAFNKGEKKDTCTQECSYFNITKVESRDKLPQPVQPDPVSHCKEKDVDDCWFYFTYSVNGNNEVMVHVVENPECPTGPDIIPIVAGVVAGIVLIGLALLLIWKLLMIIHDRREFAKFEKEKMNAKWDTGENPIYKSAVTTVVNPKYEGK

Assays:
[1] = target: integrin α4β7 (Homo sapiens, UniProt P13612+P26010); experiment: Assessment of VCAM-1/α4β7 binding antagonistic activity (RPMI-8866 cells binding to VCAM-1); conditions: read-out: integrin VCAM/α4 binding antagonistic activity (IC50) α4β7; RPMI-8866 human B lymphoma cells binding to recombinant human VCAM-1, binding buffer with 4 mM MnCl2
[2] = target: integrin α4β1 (Homo sapiens, UniProt P05556+P13612); experiment: Assessment of VCAM-1/α4β1 binding antagonist activity (Jurkat cells binding to VCAM-1); conditions: read-out: integrin VCAM/α4 binding antagonistic activity (IC50) α4β1; Jurkat human T cells binding to recombinant human VCAM-1

| SMILES | IC50 [1] [nM] | IC50 [2] [nM] |
| --- | --- | --- |
| O=C(N[C@@H](Cc1ccc(-n2c(=O)c3ccccc3n(-c3ccccc3)c2=O)cc1)C(=O)O)c1c(Cl)cccc1Cl | 20 | 840 |
| Cn1c(=O)n(-c2ccc(C[C@H](NC(=O)c3c(Cl)cccc3Cl)C(=O)O)cc2)c(=O)c2cc(Br)ccc21 | 1.6 | 27 |
| O=C(N[C@@H](Cc1ccc(-n2c(=O)c3ccccc3n(CCc3ccccc3)c2=O)cc1)C(=O)O)c1c(Cl)cccc1Cl | 12 | 180 |

Next, values leading:

| IC50 [1] [nM] | IC50 [2] [nM] | SMILES |
| --- | --- | --- |
| 1.6 | 1200 | CCOc1nc2ccc(OC)cc2c(=O)n1-c1ccc(C[C@H](NC(=O)c2c(Cl)cccc2Cl)C(=O)O)cc1 |
| 24 | 183 | CN1c2ccc([N+](=O)[O-])cc2C(=O)N(c2ccc(C[C@H](NC(=O)c3c(Cl)cccc3Cl)C(=O)O)cc2)[S+]1[O-] (stereo partly shown) |
